# Values of other authors as cited in US20070048320A1, “Method for indentifying modulators of PPIL2 useful for treating Alzheimer's disease” (priority 2005, published 2007).
# Protein sequences, listed by entry. Tags and fused reporters are not part of them. Residues count along the entry.
# UniProt P56817, 46-501: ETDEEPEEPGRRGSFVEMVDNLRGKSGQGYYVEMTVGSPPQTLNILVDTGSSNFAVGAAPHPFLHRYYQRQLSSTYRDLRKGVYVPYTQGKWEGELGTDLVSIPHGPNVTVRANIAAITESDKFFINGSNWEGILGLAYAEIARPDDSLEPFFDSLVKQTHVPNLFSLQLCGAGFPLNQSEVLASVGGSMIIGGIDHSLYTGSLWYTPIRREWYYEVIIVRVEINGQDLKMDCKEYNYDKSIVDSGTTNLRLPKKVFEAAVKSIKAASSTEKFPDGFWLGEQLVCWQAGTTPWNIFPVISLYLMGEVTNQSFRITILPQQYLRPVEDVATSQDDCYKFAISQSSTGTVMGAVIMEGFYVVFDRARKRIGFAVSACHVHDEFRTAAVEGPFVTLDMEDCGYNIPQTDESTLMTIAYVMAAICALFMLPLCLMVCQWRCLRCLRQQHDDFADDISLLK
# Biological target: T1, recombinant β-secretase produced in E. coli (Homo sapiens, UniProt P56817)
# T1 construct: host or cells: E. coli
# Conditions: read-out: Ki towards recombinant β-secretase
substance,measurement,value
VNL*AAEF [OM99-1],Ki,68.4 nM
